Paper PMC7076694, “The Qi Site of Cytochrome b is a Promiscuous Drug Target in Trypanosoma cruzi and Leishmania donovani” (ACS Infectious Diseases, 2020)

Chains of the proteins cited; added tags and fusions are not shown.
UniProt A5HU08, entry or part of it: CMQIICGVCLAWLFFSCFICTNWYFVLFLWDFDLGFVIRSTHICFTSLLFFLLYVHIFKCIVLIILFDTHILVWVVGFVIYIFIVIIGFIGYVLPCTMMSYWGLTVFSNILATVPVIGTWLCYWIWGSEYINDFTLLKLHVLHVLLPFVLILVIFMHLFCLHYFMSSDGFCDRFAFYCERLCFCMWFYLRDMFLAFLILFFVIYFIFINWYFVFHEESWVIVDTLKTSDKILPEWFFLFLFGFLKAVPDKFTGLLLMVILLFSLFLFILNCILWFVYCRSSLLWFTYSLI
UniProt Q9T479, entry or part of it: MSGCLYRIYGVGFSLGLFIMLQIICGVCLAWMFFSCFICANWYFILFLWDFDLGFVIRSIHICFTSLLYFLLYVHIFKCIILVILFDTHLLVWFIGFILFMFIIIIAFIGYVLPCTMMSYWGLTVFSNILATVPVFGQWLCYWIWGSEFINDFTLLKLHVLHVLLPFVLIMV

Tests used:
[1] = target: complex III (cytochrome bc1 complex) (Leishmania donovani, UniProt A5HU08); assay: biochemical; type: biochemical
[2] = target: complex III (cytochrome bc1 complex) (Trypanosoma cruzi, UniProt Q9T479); assay: Complex III (cytochrome c reduction) assay, T. cruzi lysate; type: biochemical; settings: mitochondria-enriched lysate of epimastigotes
[3] = test system: complex III (cytochrome bc1 complex); assay: biochemical; type: biochemical, Leishmania donovani; settings: complex III
[4] = test system: L. donovani promastigotes; type: cell-based, Leishmania donovani; settings: relative to wild-type

CCCCCC[C@H]1C(=O)O[C@H](C)[C@H](NC(=O)c2cccc(NC=O)c2O)C(=O)O[C@@H](C)[C@@H]1OC(=O)CC(C)C [antimycin A, reference compound]
IC50 [1]: 0.025 ± 0.002 µM
IC50 [2]: 0.014 ± 0.003 µM

Cc1nn2c(=O)c(Cc3ccc(Cl)cc3)c(C)[nH]c2c1C [compound 1]
fold-change in sensitivity compared to wild-type, Compound 1 RES1 lysate ([3]; L. donovani Compound 1 RES1 vs WT): 5 fold

Cc1cc(C)c2c(N)c(C(=O)N3CCC(C)(C)c4ccccc43)sc2n1 [compound 2]
relative sensitivity of L. donovani promastigotes bearing cytochrome b C222F mutation ([4]; compound 1-selected clone): hypersensitive
relative sensitivity of L. donovani promastigotes bearing cytochrome b G37A mutation ([4]; compound 1-selected clones): hypersensitivity
fold-change in sensitivity compared to wild-type, Compound 2 RES3 lysate ([3]; L. donovani Compound 2 RES3 vs WT): 42 fold
